Results published in US20140072613A1, “Compositions and Methods for Treating Cutaneous Scarring” (priority 2012, published 2014).

Amino acid sequences for entries named in this document (tags omitted). A change or cut given only in a name is not applied to a line headed by its entry.
UniProt O14965: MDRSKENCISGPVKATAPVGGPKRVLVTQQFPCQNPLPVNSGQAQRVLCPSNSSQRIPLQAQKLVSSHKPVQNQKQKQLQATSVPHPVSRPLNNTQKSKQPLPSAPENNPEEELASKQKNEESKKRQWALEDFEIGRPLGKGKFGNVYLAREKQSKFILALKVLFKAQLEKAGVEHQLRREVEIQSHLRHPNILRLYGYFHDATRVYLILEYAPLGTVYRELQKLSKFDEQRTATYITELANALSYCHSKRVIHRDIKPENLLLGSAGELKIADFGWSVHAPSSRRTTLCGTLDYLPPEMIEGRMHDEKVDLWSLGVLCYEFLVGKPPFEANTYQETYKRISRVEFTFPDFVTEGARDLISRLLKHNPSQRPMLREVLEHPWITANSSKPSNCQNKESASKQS
UniProt P49840: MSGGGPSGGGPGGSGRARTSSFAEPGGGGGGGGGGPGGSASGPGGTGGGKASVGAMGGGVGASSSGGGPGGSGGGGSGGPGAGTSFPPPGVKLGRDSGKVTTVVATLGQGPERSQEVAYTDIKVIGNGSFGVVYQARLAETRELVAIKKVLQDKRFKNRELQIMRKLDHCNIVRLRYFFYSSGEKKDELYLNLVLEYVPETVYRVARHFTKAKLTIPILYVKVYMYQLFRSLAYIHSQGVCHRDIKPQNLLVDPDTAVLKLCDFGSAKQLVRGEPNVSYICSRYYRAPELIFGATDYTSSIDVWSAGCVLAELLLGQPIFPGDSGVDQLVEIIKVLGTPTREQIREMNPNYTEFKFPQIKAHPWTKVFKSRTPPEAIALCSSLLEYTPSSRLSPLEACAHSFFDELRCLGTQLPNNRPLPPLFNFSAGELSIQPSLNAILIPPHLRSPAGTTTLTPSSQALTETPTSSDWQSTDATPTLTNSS
UniProt Q16539, whole entry: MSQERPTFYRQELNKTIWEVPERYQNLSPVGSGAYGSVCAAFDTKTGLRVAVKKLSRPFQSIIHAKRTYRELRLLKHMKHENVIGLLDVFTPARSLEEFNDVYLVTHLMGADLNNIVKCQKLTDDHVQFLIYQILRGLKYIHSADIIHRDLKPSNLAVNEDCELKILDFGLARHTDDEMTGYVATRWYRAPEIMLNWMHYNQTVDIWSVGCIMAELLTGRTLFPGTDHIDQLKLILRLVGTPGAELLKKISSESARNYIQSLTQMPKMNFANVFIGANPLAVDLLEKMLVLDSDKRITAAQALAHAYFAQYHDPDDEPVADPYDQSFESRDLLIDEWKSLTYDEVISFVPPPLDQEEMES

How the values were obtained:
Assay type in all cases: biochemical
266 human kinases [1] = target: 266 human kinases (Homo sapiens, UniProt Q02750); conditions: MEK1(h); 100 μM
Outline: (§1)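 Kinase phosphorylates cationic substrate with radiolabelled ATP phosphate; substrate retained on anionic filter membrane; scintillation count; % of 100% activity control.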

266 human kinases [2] = target: 266 human kinases (Homo sapiens, UniProt O14965); conditions: Aurora-A(h); 100 μM
Outline: as §1

266 human kinases [3] = target: 266 human kinases (Homo sapiens, UniProt P49840); conditions: GSK3α(h); 100 μM
Outline: as §1

266 human kinases [4] = target: T1, 266 human kinases (Homo sapiens, UniProt P21709); conditions: EphA1(h); 100 μM
T1 sequence (P21709 26-976): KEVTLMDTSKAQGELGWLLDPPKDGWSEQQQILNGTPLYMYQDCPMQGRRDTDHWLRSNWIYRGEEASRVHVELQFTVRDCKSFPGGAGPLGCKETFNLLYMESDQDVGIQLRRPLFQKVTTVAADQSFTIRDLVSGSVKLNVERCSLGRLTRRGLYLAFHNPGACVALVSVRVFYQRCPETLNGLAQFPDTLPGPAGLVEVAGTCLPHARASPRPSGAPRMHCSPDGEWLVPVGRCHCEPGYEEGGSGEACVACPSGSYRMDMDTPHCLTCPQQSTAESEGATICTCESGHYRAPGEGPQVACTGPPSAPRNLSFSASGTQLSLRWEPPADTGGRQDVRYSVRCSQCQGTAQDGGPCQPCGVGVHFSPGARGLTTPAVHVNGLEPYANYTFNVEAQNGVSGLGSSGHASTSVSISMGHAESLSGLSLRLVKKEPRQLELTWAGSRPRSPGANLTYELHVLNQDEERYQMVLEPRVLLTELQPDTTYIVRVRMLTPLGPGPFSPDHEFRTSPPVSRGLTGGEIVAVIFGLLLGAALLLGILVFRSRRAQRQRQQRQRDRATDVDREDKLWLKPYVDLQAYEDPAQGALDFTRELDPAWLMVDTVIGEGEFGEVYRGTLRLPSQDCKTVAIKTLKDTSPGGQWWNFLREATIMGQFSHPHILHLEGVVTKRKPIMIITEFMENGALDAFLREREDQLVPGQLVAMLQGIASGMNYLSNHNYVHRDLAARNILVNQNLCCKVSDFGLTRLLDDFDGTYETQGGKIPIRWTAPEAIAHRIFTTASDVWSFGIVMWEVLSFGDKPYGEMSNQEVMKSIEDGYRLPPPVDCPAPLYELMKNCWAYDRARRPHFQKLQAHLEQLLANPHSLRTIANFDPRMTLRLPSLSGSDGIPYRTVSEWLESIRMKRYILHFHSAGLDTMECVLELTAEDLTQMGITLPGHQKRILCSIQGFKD
Outline: as §1

266 human kinases [5] = target: T2, 266 human kinases (Homo sapiens, UniProt P29320); conditions: EphA3(h); 100 μM
T2 sequence (P29320 21-983): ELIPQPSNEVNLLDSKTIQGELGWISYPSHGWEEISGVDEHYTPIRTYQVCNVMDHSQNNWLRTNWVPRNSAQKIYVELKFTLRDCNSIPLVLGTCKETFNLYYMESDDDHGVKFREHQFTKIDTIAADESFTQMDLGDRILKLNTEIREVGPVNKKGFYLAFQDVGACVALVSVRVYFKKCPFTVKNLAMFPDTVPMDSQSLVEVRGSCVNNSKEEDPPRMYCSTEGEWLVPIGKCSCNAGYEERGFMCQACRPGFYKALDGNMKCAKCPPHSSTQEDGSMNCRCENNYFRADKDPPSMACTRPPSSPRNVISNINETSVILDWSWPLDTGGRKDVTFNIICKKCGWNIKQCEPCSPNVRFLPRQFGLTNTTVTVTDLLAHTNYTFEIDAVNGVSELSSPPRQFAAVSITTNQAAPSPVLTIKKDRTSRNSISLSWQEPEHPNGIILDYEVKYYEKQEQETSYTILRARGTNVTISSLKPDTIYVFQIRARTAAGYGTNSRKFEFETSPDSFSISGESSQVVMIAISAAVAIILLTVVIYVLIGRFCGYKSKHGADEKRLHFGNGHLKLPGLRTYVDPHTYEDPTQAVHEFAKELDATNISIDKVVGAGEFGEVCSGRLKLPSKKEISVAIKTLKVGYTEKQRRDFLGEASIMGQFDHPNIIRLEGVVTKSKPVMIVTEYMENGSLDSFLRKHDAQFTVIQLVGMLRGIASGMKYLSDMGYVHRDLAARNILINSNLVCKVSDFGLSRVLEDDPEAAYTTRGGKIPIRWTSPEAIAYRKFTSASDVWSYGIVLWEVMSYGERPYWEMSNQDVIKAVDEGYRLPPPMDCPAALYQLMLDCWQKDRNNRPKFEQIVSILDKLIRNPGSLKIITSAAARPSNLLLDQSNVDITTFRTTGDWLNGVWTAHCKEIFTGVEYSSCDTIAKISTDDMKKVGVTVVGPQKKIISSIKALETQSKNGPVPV
Outline: as §1

266 human kinases [6] = target: T3, 266 human kinases (Homo sapiens, UniProt O00141); conditions: SGK(h); 100 μM
T3 sequence (O00141 1-431): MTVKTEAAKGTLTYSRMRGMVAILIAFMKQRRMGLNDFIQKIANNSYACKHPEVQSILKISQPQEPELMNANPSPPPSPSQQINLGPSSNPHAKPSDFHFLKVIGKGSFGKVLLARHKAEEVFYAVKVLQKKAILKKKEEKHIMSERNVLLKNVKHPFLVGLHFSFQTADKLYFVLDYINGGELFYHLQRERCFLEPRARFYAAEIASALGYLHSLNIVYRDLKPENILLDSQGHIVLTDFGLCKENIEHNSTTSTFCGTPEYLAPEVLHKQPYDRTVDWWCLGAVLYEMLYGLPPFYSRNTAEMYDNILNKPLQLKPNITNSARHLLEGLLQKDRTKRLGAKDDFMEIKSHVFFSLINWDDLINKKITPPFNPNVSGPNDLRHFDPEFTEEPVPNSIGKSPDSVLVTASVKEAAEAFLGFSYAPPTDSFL
Outline: as §1

266 human kinases [7] = target: 266 human kinases (Homo sapiens, UniProt P10721, V654A); conditions: cKit(V654A)(h); 100 μM
Outline: as §1

266 human kinases [8] = target: 266 human kinases (Homo sapiens, UniProt P00519, Y253F); conditions: Abl(Y253F)(h); 100 μM
Outline: as §1

266 human kinases [9] = target: 266 human kinases (Homo sapiens, UniProt Q16539); conditions: SAPK2a(h); 100 μM
Outline: as §1

YARAAARQARAKALNRQLGVA (mammal) [MMI-0200]
% activity (266 human kinases [1]): 116% | % activity (266 human kinases [2]): 107% | % activity (266 human kinases [3]): 119% | % activity (266 human kinases [4]): 136% | % activity (266 human kinases [5]): 117% | % activity (266 human kinases [6]): 115% | % activity (266 human kinases [7]): 113% | % activity (266 human kinases [8]): 102% | % activity (266 human kinases [9]): 107%
